Series [1] has as its system M327I-mutant MEN1. Particulars: M327I menin, menin-MLL binding assay; cited from earlier work.
Series [2] relates to G331D menin. The following applies: menin-MLL binding assay; cited from earlier work.
The nature of series [3]: plasma protein binding by ultracentrifugation, LC-MS/MS. Particulars: 0.2, 2, and 10 μM; 37 °C.
The nature of series [4]: clinical pharmacokinetics / exposure and exposure-response.
Series [5] deals with peripheral blasts and white blood cells. Briefly: peripheral blasts and white blood cells in treated patients. Particulars: 600 mg on-target, Cycle 1 (28 days), Ph1a and 1b.
Series [6] has as its system MEN1-M327I. Briefly: MEN1 resistance mutation analysis by RNA sequencing of patient samples.

For the compound `CNc1nc(NC2CCN(Cc3ccc4c(cc(C#N)n4C[C@H](C)N4CCN(S(C)(=O)=O)CC4)c3C)CC2)c2cc(CC(F)(F)F)sc2n1`, the IC50 (as a rule, the concentration at which inhibition is half-maximal) in series [1] is 71 nM; in series [2], 2000 nM. In series [3], the plasma protein binding result is reported as “more than 99%”. In addition, in series [4] (NPM1-m), the “correlation of exposure with risk of ≥Grade 3 AEs” value was “not correlated with greater risk of ≥Grade 3 AEs”. Moreover, the “overlap in exposure between 200/400 mg and 400/600 mg dose levels” value in series [4] (Ph1a) is reported as “significant overlap in exposure”. In series [4] (any genetic subgroup), the “correlation of exposure beyond 600 mg with clinical response” value is “not significantly correlated with an increased probability of clinical response”. The “exposure (AUC0-24, Ctrough, Cmax at steady state), 600 mg vs 200 mg” value in series [4] (steady state, QD) is given as “dose-dependent increases in exposure with the 600 mg dose over the 200 mg dose”. The “exposure, 600 mg vs 800 mg” value in series [4] (steady state, QD) was “comparable”. Besides, the “mean change from baseline in peripheral blasts and white blood cells” value in series [5] was “transient increases in these blood chemistry markers over the first one to two weeks, followed by reductions in these markers during the remainder of the first cycle”. Besides, the “patients developing resistance mutation MEN1-M327I” value in series [6] (1 of 29 patients) came to 3.4%. In series [6] (29 treated patients), the “additional MEN1 resistance mutations” value was “No additional resistance mutations were detected”.

These data come from US20260382613A1, “METHODS OF TREATING ACUTE LEUKEMIA” (published 2026).
